Assay results reported in ChEMBL document CHEMBL3868624, “Design, synthesis, biological evaluation, and molecular modeling studies of chalcone-rivastigmine hybrids as cholinesterase inhibitors” (Bioorg Med Chem, 2017).

By UniProt entry, the sequences of proteins in these tests, tags left out.
UniProt P06276, whole entry: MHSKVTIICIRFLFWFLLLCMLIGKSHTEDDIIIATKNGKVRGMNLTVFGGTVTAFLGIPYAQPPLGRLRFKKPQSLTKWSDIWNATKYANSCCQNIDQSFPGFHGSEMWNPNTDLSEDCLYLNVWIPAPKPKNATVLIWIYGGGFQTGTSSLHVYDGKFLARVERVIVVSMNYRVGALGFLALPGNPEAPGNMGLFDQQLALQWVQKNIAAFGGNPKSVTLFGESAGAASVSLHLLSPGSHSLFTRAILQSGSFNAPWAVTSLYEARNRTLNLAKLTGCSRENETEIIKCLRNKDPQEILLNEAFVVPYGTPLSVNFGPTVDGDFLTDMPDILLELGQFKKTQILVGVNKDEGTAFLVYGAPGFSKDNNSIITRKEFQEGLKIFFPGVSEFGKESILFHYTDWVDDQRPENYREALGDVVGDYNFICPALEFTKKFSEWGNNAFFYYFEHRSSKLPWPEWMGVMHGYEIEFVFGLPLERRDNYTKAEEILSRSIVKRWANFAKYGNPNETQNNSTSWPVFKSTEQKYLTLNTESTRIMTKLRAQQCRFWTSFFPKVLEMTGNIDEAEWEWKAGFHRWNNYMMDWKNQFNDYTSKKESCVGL

Target: Cholinesterase (Homo sapiens, UniProt P06276)
Experiment: Inhibition of human serum BChE using S-Butyrylthiocholine iodide as substrate preincubated for 15 mins followed by substrate addition by Ellman's method
Method in brief: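 Ellman assay in phosphate buffer pH 8.0 (0.08 M Na₂HPO₄/0.02 M NaH₂PO₄). hAChE at 0.004 U/mL or hBChE at 0.002 U/mL was preincubated with compound for 15 min at 37 °C. DTNB and ATC (hAChE) or BTC (hBChE) were added, each 50 µM final. A412 was read over 5 min and inhibition set against no-compound wells. IC50 from a variable-slope fit, mean ± SD of three independent experiments.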

`CCN(C)C(=O)Oc1cccc([C@H](C)N(C)C)c1` [RIVASTIGMINE] gave an IC50 of 380 nM.
